The whole screen tested about 210,000 compounds, of which about 880 (0.42%) were called active. For the sample, actives were picked, then their nearest neighbours and some compounds at random. A number with no mark means an inactive call.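 How the source made its calls: active means replicate mean at 85% of control or lower with very high polarization wells dropped (limit read from the data); inactive means the rest.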
biological target: Guanine nucleotide-binding protein G(i) subunit alpha-3 (Rattus norvegicus) (UniProt P08753); test: inhibitors of GIV peptide binding to Galpha-i3, primary screen, biochemical, fluorescence polarization, FITC-GIV GBA peptide, rat Galphai3 (AID 1224905); settings: 90 min, stronger effect = lower value, scaled: aluminum fluoride 0%, vehicle 100%

The chains behind the UniProt entries cited, without tags or fusion partners.
UniProt P08753, whole entry, looked up: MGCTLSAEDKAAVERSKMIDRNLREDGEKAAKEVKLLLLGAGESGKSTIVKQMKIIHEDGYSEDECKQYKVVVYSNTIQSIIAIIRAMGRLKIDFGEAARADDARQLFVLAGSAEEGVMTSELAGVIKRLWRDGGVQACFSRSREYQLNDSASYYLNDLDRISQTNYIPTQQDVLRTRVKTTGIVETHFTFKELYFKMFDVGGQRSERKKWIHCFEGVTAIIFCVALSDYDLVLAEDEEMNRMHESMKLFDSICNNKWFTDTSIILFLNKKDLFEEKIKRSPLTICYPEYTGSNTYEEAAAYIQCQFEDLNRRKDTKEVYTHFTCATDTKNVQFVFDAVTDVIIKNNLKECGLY

| SMILES | percent of control (FP) |
| --- | --- |
| CN(C)/C=C/c1nc(C(F)(F)F)c(C#N)s1 | 20.7% (active) |
| O=C(Nc1ccc(-c2nc3ccccc3o2)cc1)C1COc2ccccc2O1 (stereo not given) | 140% |
| Cc1nc2ccc(S(=O)(=O)NCC(=O)Nc3nccs3)cc2s1 | 103% |
| O=C(CSc1ncnc2ccccc12)Nc1nc2ccccc2s1 | 102% |
| CCS(=O)(=O)N1CCC2(CC1)Nc1ccc(Cl)cc1-n1cccc12 | 105% |
| CC(C)c1cc(C2CCCN2Cc2ccc(Br)cc2)no1 (stereo not given) | 102% |
| CC(=O)Oc1ccc(OC(C)=O)c2c1C1C=CC2CC1 | 101% |
| CC(=O)Oc1ccccc1C(=O)N1CCN(c2ccccc2F)CC1 | 101% |
| CC(=O)Oc1cccc2c1C(=O)C=CC2=O | 77.8% (active) |
| CCc1cc(C2CCCN2C(=O)NCC2CCCO2)on1 (stereo not given) | 106% |
| O=C(NCc1ccccc1Cl)c1ccc2nc(N3CCOCC3)sc2c1 | 104% |
| CCOC(=O)C1(C)/C(=N\Nc2ccc(Br)cc2)C(=O)C(=O)N1c1ccccc1 (stereo not given) | 101% |
| CCC(=O)N1CCc2cc(N3CC(C(=O)N4CCN(C(C)C)CC4)CC3=O)ccc21 (stereo not given) | 72.7% (active) |
| CC(=O)N1CCc2cc(N3CC(C(=O)N4CCC5(CC4)OCCO5)CC3=O)ccc21 (stereo not given) | 107% |
| CCC(NC(=O)C1CC(=O)N(c2ccc3c(c2)CCN3C(C)=O)C1)c1cccs1 (stereo not given) | 102% |
| CCSCCOC(=O)C1=C(C)NC2=C(C(=O)CC(c3ccccc3)C2)C1c1ccc(OC)cc1OC (stereo not given) | 105% |
| Cc1cc(Nc2cccc(C(F)(F)F)c2)nc2ccc(NC(=O)CSc3ccncc3)cc12 | 102% |
| COc1ccc(N=C2NC(=O)/C(=C\c3ccc(OCC(C)C)cc3)S2)cc1 | 107% |
| Cc1cc2c(cc3n2CC(C)(C(=O)NC2CCCCC2)N(Cc2ccc(F)cc2)C3=O)o1 (stereo not given) | 102% |
| Nc1nnc2c(n1)-c1ccccc1C2=O | 100% |

| SMILES | percent of control (FP) |
| --- | --- |
| CCn1c(C)nc2c1C(=O)c1ccccc1C2=O | 102% |
| Cc1cc2c3c(ccc(N)c3n1)C(=O)c1ccccc1-2 | -32.2% (active) |
| S=C(Cc1ccc(CC(=S)N2CCOCC2)cc1)N1CCOCC1 | 105% |
| O=C(Nc1ccc(O)c(-c2nc3ccccc3s2)c1)c1cccc(N2C(=O)CCC2=O)c1 | 104% |
| CC1CCN(C(=O)CSc2nnc3c(n2)[nH]c2ccccc23)C(C)C1 (stereo not given) | 108% |
| O=C1/C(=C/c2ccc(-c3cc(Cl)ccc3Cl)o2)C=C(c2ccccc2)N1c1ccc(F)cc1 | 112% |
| CCOc1ccc(NC(=O)c2cn(C)c3c(c(C)nn3-c3ccc(F)cc3)c2=O)cc1 | 101% |
| CC(C)/C=N/NC(=O)c1ccccc1 | 101% |
| CC(=O)Nn1nc2c(n1)C(=NNC(=O)c1ccccc1)c1nn(NC(C)=O)nc1C2=NNC(=O)c1ccccc1 | 99.9% |
| O=C(NN=c1c(=O)c2ccccc2c1=O)c1ccncc1 | 76.9% (active) |
| O=C(Nc1c(F)cc(F)cc1Br)c1cc(S(=O)(=O)N2CCN(c3ccccc3)CC2)ccc1F | 106% |
| Cc1ccc(S(=O)(=O)N2CSC[C@@H]2C(=O)NCc2csc(C)n2)cc1 | 105% |
| O=C(NCc1ccccn1)c1cc(-c2ccccc2O)no1 | 97.4% |
| CCn1c(=O)c(=O)n(CC(=O)NCCC2=CCCCC2)c2cccnc21 | 101% |
| Cn1c(=O)c(C#N)c(O)c2ccccc21 | 103% |
| N#CC(C#N)=C(C#N)/C=C/n1c2ccccc2c2ccccc21 | 69.8% (active) |
| COc1ccc(Cl)cc1C(=O)Nc1cccc(-c2nc3cccnc3s2)c1 | 108% |
| COC(=O)C1C(=O)NC(SCC(=O)Nc2ccccc2C)=C(C#N)C1c1ccc(Cl)cc1Cl (stereo not given) | 104% |
| COc1cccc(C2=N/C(=C\c3ccccc3OC)C(=O)N2c2ccc(C)cc2)c1 | 94% |
| COc1cc(/C=C2/N=C(c3ccccc3)N(C)C2=O)cc(OC)c1OC | 106% |

| SMILES | percent of control (FP) |
| --- | --- |
| COc1cccc(C2=N/C(=C\c3ccccc3OC)C(=O)N2c2cccc(F)c2)c1 | 62.3% (active) |
| COc1ccc(NC(=O)C2CCCN(c3nc4ncccc4n4cccc34)C2)cc1 (stereo not given) | 128% |
| CC1CCN(C(=O)Cn2nc(Cc3ccncc3)c3ccccc3c2=O)CC1 | 101% |
| Cn1cccc1/C=C1\C(=O)NC(=S)N(c2ccccc2)C1=O | 80.1% (active) |
| O=C1NC(=O)N(c2ccccc2)C(=O)C1=Cc1c2ccccc2cc2ccccc12 | 101% |
| O=C1NC(=S)N(c2ccc(Br)cc2)C(=O)/C1=C/c1ccsc1 | 94.1% |
| Cc1ccc2c(c1)N(C(=O)CSc1nc3ccccc3o1)C(C)(C)c1ssc(=S)c1-2 | 101% |
| COc1ccc(CNC(=O)c2cnc(N(C)C)nc2C)cc1 | 99% |
| CCc1nn(CC(=O)NCc2ccc(OC)c(OC)c2)c(=O)c2cc3occc3n12 | 103% |
| O=C(NCCCN1CCOCC1)C1CCN(c2cncnc2N2CCCCC2)CC1 | 113% |
| COc1cccc(C2=CC(c3cccc(OC)c3)n3ncnc3N2)c1 (stereo not given) | 96% |
| CC1=C(C(=O)Nc2ccccc2Cl)C(c2cccs2)n2ncnc2N1 (stereo not given) | 98% |
| CC1=C(C(N)=O)C(c2ccc(Br)cc2)n2ncnc2N1 (stereo not given) | 111% |
| CSc1ccc(C2C=C(c3cccs3)Nc3ncnn32)cc1 (stereo not given) | -22.3% (active) |
| CSc1ccc(C2C=C(c3ccc(Cl)s3)Nc3ncnn32)cc1 (stereo not given) | -22.3% (active) |
| Cc1ccc(-n2nc3c(c2NC(=O)c2ccc(S(=O)(=O)N4CCCC4)cc2)CSC3)c(C)c1 | 102% |
| O=C(c1cc2c(s1)-c1ccsc1CC2)N1CCN(c2ccccn2)CC1 | 109% |
| COc1ccc2oc(-c3noc(-c4ccnn4C)n3)c(C)c2c1 | 106% |
| Cc1cc(C)n(CC(=O)NC2CCCC2)c(=O)c1S(=O)(=O)c1ccc(Cl)cc1 | 104% |
| CCN1CCN(C(=O)c2sc3nc(C)nc(N4CCN(c5ccccn5)CC4)c3c2C)CC1 | 104% |

Reference: PubChem BioAssay AID1224905 (ICCB-Longwood Screening Facility, Harvard Medical School, 2016)
